Reference: patent publication US6323205A (priority 2000, dated 2001)

Conditions: dog, in vivo, iv

C#CCC(Cc1cnc2nc(N)nc(N)c2n1)c1ccc(C(=O)N[C@@H](CCC(=O)O)C(=O)O)cc1 (stereo partly shown) [10-propargyl-10-deazaaminopterin]
estimated LD50: about 8 mg/kg
